Experimental data as given in patent US12685773B2 (priority 2020, dated 2026).
Like-named read-outs stand apart in the source and are kept apart here.

Test system: relapsed or refractory CD30+ Hodgkin Lymphoma
Details: classical HL patients with measurable disease at time of treatment

For `Cn1c(CCCC(=O)O)nc2cc(N(CCCl)CCCl)ccc21` [Benda], the “RR: CR, %” value was “(0%)”, the “RR: PD, %” value was “(80%)” and the “RR: PR, %” value was “(0%)”. For the same compound, the “RR: SD, %” value was “(20%)”, the “ORR (CR + PR): %” value (Lugano criteria, 6-8 weeks after infusion) was “(0%)” and the “ORR (CR + PR): n” value (Lugano criteria, 6-8 weeks after infusion, listed as Bendamustine) was 0. For the same compound, the “ORR (CR + PR): n” value (Lugano criteria, 6-8 weeks after infusion, listed as bendamustine alone) was “None of the 5 patients with active disease showed objective clinical responses”.
